In patent US12668573B2, “Linker, antibody-drug conjugate including same and use thereof” (Zhejiang Yangshengtang Institute of Natural Medication Co., …, priority 2018, dated 2026):

Tests used:
BT-474 = assay: In vitro cytotoxicity test (CellTiter Glo, 96 h); format: cell-based, human; details: BT-474, HER2-positive breast cancer; ADC DAR about 4
MCF-7 = assay: In vitro cytotoxicity test (CellTiter Glo, 96 h); format: cell-based; details: MCF-7, HER2-weakly positive breast cancer; ADC DAR about 4
Text: (§1) The positive control drugs were anti-HER2 humanized monoclonal antibody mil40 (MAB) (purchased from Zhejiang Hisun Pharmaceutical Co., Ltd.), and cytotoxin MMAE (purchased from Concortis Biosystems). The selected cell lines included antigen HER2-positive breast cancer cell lines BT-474 and HCC1954, antigen HER2-positive ovarian cancer cell line SK-OV-3, antigen HER2-positive gastric cancer cell line NCI-N87, and antigen HER2-weakly positive breast cancer cell line MCF-7, and antigen HER2-negative breast cancer cell line MDA-MB-468 (purchased from ATCC).
(§2) a) Vial was gently shaken in a 37° C. water bath to be thawed; b) after all the contents had been thawed, the vial was taken out from the water bath, and disinfected by immersion in or spraying with 70% ethanol; c) the contents of the vial was transferred into a centrifuge tube containing 9 mL of complete medium (DMEM medium was used for cell lines BT-474 and MCF-7; RPMI1640 medium was used for cell lines NCI-N87, HCC1954 and MDA-MB-468; and Mccoy's 5A medium was used for cell line SK-OV-3; the media described below were the same as here), and centrifuged at about 200 xg for 5 minutes; d) the cell pellet was re-suspended in a medium and distributed into a 75 cm^2 culture flask; e) the resulting culture was incubated in a 37° C., 5% CO2 incubator.
(§3) a) The cells were passaged three times a week at a ratio of 1:4 in a medium containing 10% FBS (heat inactivated) and 1% penicillin/streptomycin solution; b) for the passaged cells, the adherent cells were firstly washed with 0.05% trypsin/EDTA solution (3 mL), then trypsin/EDTA (3 mL) was added and vortexed to coat the cells evenly. The resulting culture was incubated at 37° C. until the cells were detached (observed with microscope to verify that the cells were detached). An equal volume of cell culture medium was added to inactivate trypsin, the detached cells were collected, and centrifuged at 200×g for 5 minutes and then re-suspended in fresh culture medium. […]
(§4) a) The cells were collected and counted to determine the number of cells; b) 36 μL of the cell suspension with an adjusted density was added to the designated 384-well cell culture plate; and the final cell density was about 1,000 cells/well; c) the plate was covered with a lid, and placed in an incubator to perform incubation at 37° C., 5% CO2 and 0.1% O2 for 96 hours.
(§5) a) After 96 hours, the plate was taken from the incubator and equilibrated at room temperature for 10 minutes; b) CellTiter Glo reagent was incubated at 37° C. before the experiment; c) 40 μL of CellTiter-Glo reagent was added to each well to be tested (the ratio of CellTiter-Glo reagent to medium was 1:1); d) the plate was then placed at room temperature for 30 minutes, and then reading was carried out on an EnSpire reader for cell counting.
(§6) Remaining activity was calculated using the following formula: Remaining activity (%)=100%×(S−M)/(V−M) • S: Readout of test sample • V: Readout of vehicle sample • M: Readout of well with compounds treatment • Xlfit (v5.3.1.3), equation 201 was used to fit curve, and calculate IC50 value. […]

SK-OV-3 = assay: In vitro cytotoxicity test (CellTiter Glo, 96 h); format: cell-based; details: Sk-OV-3, HER2-positive ovarian cancer; ADC DAR about 4
Text: as §1, §2, §3, §4, §5, §6

MDA-MB-468 = assay: In vitro cytotoxicity test (CellTiter Glo, 96 h); format: cell-based; details: MDA-MB-468, HER2-negative breast cancer; ADC DAR about 4
Text: as §1, §2, §3, §4, §5, §6

NCI-N87 = assay: In vitro cytotoxicity test (CellTiter Glo, 96 h); format: cell-based; details: NCI-N87, HER2-positive gastric cancer; ADC DAR about 4
Text: as §1, §2, §3, §4, §5, §6

HCC1954 = assay: In vitro cytotoxicity test (CellTiter Glo, 96 h); format: cell-based; details: HCC1954, HER2-positive breast cancer; ADC DAR about 4
Text: as §1, §2, §3, §4, §5, §6

[1] = HER2^+ breast cancer after Herceptin resistance; cited from earlier work

For “MAB: anti-HER2 humanized monoclonal antibody mil40, a biosimilar of Herceptin, purchased from Zhejiang Hisun”, which IC50 (BT-474) is on record?
Its IC50 is 1.54 nM.

What about the IC50 (MCF-7) of the same substance?
The IC50 was greater than 3440 nM.

And the IC50 (SK-OV-3)?
Its IC50 is 2760 nM.

What about the IC50 (MDA-MB-468) of the same substance?
The IC50 was 553 nM.

What about the IC50 (NCI-N87) of the same substance?
The IC50 was 0.36 nM.

What about the IC50 (HCC1954) of the same substance?
Its IC50 is 0.274 nM.

Which “prolongation of overall survival (OS) in comparison with standard therapy of capecitabine/lapatinib” value [1] does the source give for “Kadcyla: ADC drug composed of monoclonal antibody Herceptin and cytotoxin DM1” here?
The value was roughly 6 months.
